How the values were obtained:
Test in all cases: SPR, Ab captured, 37 C
[1] = biological target: recombinant HLA-DQ2.5/33 mer gliadin peptide complex (human; wheat)
[2] = biological target: recombinant HLA-DQ2.5/BC Hordein peptide complex (human; barley)
[3] = biological target: recombinant HLA-DQ2.5/gamma 2 gliadin peptide complex (human; wheat)

Substance | Kd [1] | Kd [2] | Kd [3]
DQN0344H0976/L0591//DQN0385H1270/L0681-F6 (bispecific antibody) | 3.46 nM | 6.52 nM | 8.06 nM
DQN0344H0976/L0591//DQN0385H1352/L0681-F6 (bispecific antibody) | 3.35 nM | 6.57 nM | 9.37 nM
DQN0344H0976/L0591//DQN0385H1527/L0605-F6 (bispecific antibody) | 3.48 nM | 7.46 nM | 14.6 nM
DQN0344H1013/L0620//DQN0385H1270/L0681-F6 (bispecific antibody) | 4.02 nM | 6.67 nM | 8.22 nM
DQN0344H1013/L0620//DQN0385H1270/L0722-F6 (bispecific antibody) | 4.09 nM | 6.53 nM | 8.54 nM
DQN0344H1013/L0620//DQN0385H1521/L0605-F6 (bispecific antibody) | 4.08 nM | 8.59 nM | 19 nM

More lines, in order of falling Kd [1], values ahead:

Kd [1] | Kd [2] | Kd [3] | Substance
3.93 nM | 6.06 nM | 9.69 nM | DQN0344H1013/L0620//DQN0385H1352/L0681-F6 (bispecific antibody)
3.69 nM | 5.71 nM | 7.36 nM | DQN0344H1013/L0620//DQN0385H1353/L0681-F6 (bispecific antibody)
3.5 nM | 6.06 nM | 8.39 nM | DQN0344H0976/L0591//DQN0385H1270/L0722-F6 (bispecific antibody)
3.41 nM | 8.2 nM | 11.7 nM | DQN0344H0976/L0591//DQN0385H1255/L0605-F6 (bispecific antibody)

Reference: US20220089743A1
